# In patent publication US5736376A, “Recombinant endothelin converting enzyme-2 and its use in ECE inhibitor screening” (Board of Regents, The University of Texas System, priority 1995, dated 1998):
# Legend:
# ECE-1 [1] = biological target: T1, ECE-1 (Bos taurus, UniProt P42891); assay: Coculture of CHO/ECE-1 and CHO/preproET-1 cells: cleavage of exogenously supplied big ET-1; format: cell-based, bovine; conditions: coculture 24 h with CHO/preproET-1; read-out: IC50, production of mature ET-1, CHO/ECE-1 coculture
# T1 construct: made in house
# T1 sequence (P42891 1-754): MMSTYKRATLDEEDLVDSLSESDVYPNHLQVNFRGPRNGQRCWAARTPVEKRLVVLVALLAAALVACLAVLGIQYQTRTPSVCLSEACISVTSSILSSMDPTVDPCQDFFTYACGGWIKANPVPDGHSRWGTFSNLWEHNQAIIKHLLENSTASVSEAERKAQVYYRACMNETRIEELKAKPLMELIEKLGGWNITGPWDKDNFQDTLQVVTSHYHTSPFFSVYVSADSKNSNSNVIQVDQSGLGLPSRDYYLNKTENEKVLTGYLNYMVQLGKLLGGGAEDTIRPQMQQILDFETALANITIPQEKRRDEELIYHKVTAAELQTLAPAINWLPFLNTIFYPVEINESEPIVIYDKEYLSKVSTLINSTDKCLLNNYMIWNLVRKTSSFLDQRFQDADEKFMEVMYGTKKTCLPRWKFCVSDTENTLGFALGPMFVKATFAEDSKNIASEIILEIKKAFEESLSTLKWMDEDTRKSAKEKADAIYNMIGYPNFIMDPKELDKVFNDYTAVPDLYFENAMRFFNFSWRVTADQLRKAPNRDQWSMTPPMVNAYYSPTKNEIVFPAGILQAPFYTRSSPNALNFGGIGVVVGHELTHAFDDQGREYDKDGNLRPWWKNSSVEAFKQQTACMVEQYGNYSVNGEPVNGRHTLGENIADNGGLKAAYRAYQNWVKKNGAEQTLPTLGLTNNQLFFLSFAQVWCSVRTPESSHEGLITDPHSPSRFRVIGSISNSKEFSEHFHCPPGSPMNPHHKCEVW
# ECE-1 [2] = biological target: T1, ECE-1; assay: Double-transfection live cell assay: CHO/ECE-1 cells with preproET-1; format: cell-based, bovine; conditions: parallel double-transfection assay
# Experimental: To examine whether ECE-2 can convert big ET-1 in a physiological context in transfected cells, a double-transfection assay was used (Xu et al., 1994). CHO/ECE-2 cells and untransfected CHO cells were transiently transfected in parallel with a preproET-1 construct, and mature ET-1 secreted from these cells into the medium was determined by EIA.
# These observations indicate that ECE-2 is processing big ET-1 inside the cells, where these inhibitors have limited access.
# CHO-K1 cells were cultured as described (Xu et al., 1994). Since many batches of tissue culture-grade trypsin preparations contained high levels of metalloprotease contaminants with an ECE-like activity, a highly purified crystallized preparation of trypsin (Sigma, Catalog No. T7418) was dissolved in phosphate-buffered saline at 0.013% (w/v) and used for all trypsinization procedures. The coding region of bovine ECE-2 cDNA was subcloned into pME18Sf- expression vector (Sakamoto et al., 1993). Stable transfection of CHO cells and isolation of the transfectant clones, as well as transient transfection of human preproET-1 cDNA was performed as described (Xu et al., 1994). Twelve hours after the transient transfection, cells were refed with fresh medium with or without ECE inhibitors. The medium was conditioned for an additional 12 h and directly subjected to enzyme immunoassay (EIA) for mature ET-1 (Suzuki et al., 1989).
# ECE-1 [3] = biological target: T1, ECE-1; assay: Protease inhibitor assay of ECE-1, solubilized CHO/ECE-1 membranes, big ET-1 conversion, pH 6.8; format: biochemical, bovine; conditions: in vitro
structure (smiles),measurement,setting,value
CC(C)C[C@H](NP(=O)(O)O[C@@H]1O[C@@H](C)[C@H](O)[C@@H](O)[C@H]1O)C(=O)N[C@@H](Cc1c[nH]c2ccccc12)C(=O)O [Phosphoramidon],IC50,ECE-1 [1],~1 µM
same,IC50,ECE-1 [2],> 200 µM
same,IC50,ECE-1 [3],1 µM
